## Yeast mating assay 1: variants of the scFv Ab-14

Target: peptide PDVDLGDISGINAS, taken from heptad repeat 2 (HR2) of SARS-CoV-2 spike.

Parent scFv Ab-14: VH joined to VL by a (GGGGS)3 linker. Changes lie in the heavy chain CDRs alone.
VH: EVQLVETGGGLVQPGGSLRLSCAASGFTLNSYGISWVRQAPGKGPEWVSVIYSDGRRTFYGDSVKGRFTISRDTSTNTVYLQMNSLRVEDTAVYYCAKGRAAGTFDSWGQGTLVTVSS
VL: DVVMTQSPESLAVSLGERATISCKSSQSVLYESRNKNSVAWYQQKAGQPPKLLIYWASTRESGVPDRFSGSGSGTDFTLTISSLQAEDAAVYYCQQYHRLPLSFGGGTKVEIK

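Library AAYL49 holds single substitutions and randomly drawn double and triple substitutions in the CDRs. AlphaSeq pools MATa yeast showing the antibodies with MATalpha yeast showing the peptide. The frequency of each diploid, read from paired DNA barcodes, reflects how well the two displayed proteins bind. Read counts were normalised to the haploid input and turned into Kd by a linear fit to BCL2-family pairs of known affinity, for each replicate. Each pool was mated in three replicate cultures.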

Variants are written as CDR1, CDR2 and CDR3 of the heavy chain (limits as in the source). Parent: GFTLNSYGIS, VIYSDGRRTFYGDSVK, GRAAGTFDS. Numbers give log10(Kd / nM), so 0 is 1 nM and 3 is 1 µM. Smaller is tighter. Averages over replicates are reported, and they cover detected replicates only. An entry "ND" has no value in the source: the pair was not observed among the diploids in that replicate. This suggests poor binding but is not conclusive. Nonspecific signal, from three strains lacking the peptide, appeared in 15% of pairings of library AAYL49, centred on 4.06 (5% of these signals below 2.83); values are not corrected for it. Also given: how often the same scFv was detected with the empty control strains.

GRTLNSYGIS / SSYSDGRRTFYGDSVK / GRAAGTFDS: ND, ND, 4.69 (controls 1 of 9).
GFTLNSYGIS / VIYSDGRRTFIGTSTK / GRAAGTFDS: 4.39, 4.29, ND (mean 4.34; controls 1 of 9).
GFTLNSYEIS / VIYSDGDRTFYGDSVK / GPAAGTFDS: 3.29, 4.68, ND (mean 3.98; controls 1 of 9).
GFTLNSYGIS / VIYSDGRRTFYGDSVK / GRAAGHAGS: 2.88, 2.55, 2.65 (mean 2.69; controls 3 of 9).
GAILNSYGIT / VIYSDGRRTFYGDSVK / GRAAGTFDS: ND, ND, ND (controls 0 of 9).
GFTLNSYGIS / VIYDDGRRTFYGDSVK / PRAIGTFDS: ND, 3.81, ND (controls 1 of 9).
GFWLNSAGIS / VIYSDGRDTFYGDSVK / GRAAGTFDS: ND, 4.13, ND (controls 6 of 9).
GFTDNSYGIS / VIYSDGRRTFTGPSVK / GRAAGTFDS: ND, 3.03, ND (controls 2 of 9).
GFTLNSYGMS / VIYSDGRRTFYGDSVK / GPAAGTFDS: 2.45, 2.83, 2.51 (mean 2.60; controls 0 of 9).
GCTLNSYGIY / VIYSDGRRTFYGDSVK / GRAAGTFQS: ND, ND, ND (controls 1 of 9).
GFTENSYGIS / VIYSDGRRTFYGDSVK / GRAGGTFDH: ND, ND, ND (controls 0 of 9).
GFTLNSYGIS / VIYSDDRRTFYGDSVW / GRAAGTFDS: 2.36, ND, ND (controls 0 of 9).
GFTLNCYGIW / VIYSDGRRTFYGDSVK / GRAQGTFDS: ND, ND, ND (controls 0 of 9).
GFTCNSYGIS / VIYSDGRGTFYGDSVK / GRAAGTFDS: ND, 4.31, ND (controls 5 of 9).
GFTLNSYNIS / VIYSPARRTFYGDSVK / GRAAGTFDS: ND, ND, ND (controls 0 of 9).
GFTLNQYGIS / VIYSDKRRTFYGDSVK / GRAAGNFDS: ND, ND, ND (controls 1 of 9).
GFDLNSYGIS / VIYSDGRRTFYGDWVL / GRAAGTFDS: 2.28, ND, 3.69 (mean 2.98; controls 0 of 9).
GFTLNSYGIS / MIYSPGRRFFYGDSVK / GRAAGTFDS: ND, ND, ND (controls 0 of 9).
GFTLNSYGIS / VIYSDGRRHFYGDSSK / GRRAGTFDS: ND, ND, ND (controls 0 of 9).
GFTLNSYGIS / VWISDGRRTFYGDSVK / GRKAGTFDS: 4.40, ND, 5.46 (mean 4.93; controls 3 of 9).
GPTLNSYGIS / VIYSDGRRTFYGDSVK / GRAAQTMDS: ND, ND, ND (controls 1 of 9).
GFTLNSYGIS / VIYSDGRRPFYMDSVK / GRAAGTQDS: ND, ND, ND (controls 0 of 9).
GFTLNSYGIS / VIYSQGRRKFYGDSMK / GRAAGTFDS: ND, ND, ND (controls 0 of 9).
GFTLNSYGIS / VWYSDGRKTFYGDSVK / GRAKGTFDS: ND, ND, ND (controls 0 of 9).
GFTLNSYGIS / VIYEDGRRTFYGDSVK / GRAAGTFDS: 6.22, ND, ND (controls 4 of 9).
GHTLNSYGIS / VIYSRQRRTFYGDSVK / GRAAGTFDS: 4.37, ND, 5.31 (mean 4.84; controls 3 of 9).
GFTLNSYGIS / VIYMDGRRTFYGDSVK / GRAPGYFDS: ND, ND, ND (controls 1 of 9).
SFTLNEYGIS / VIYSDGRRTFYGRSVK / GRAAGTFDS: ND, 3.66, 3.51 (mean 3.59; controls 1 of 9).
GFTLNSYGIS / VIYGDGRRTWYGESVK / GRAAGTFDS: 3.56, 3.06, 3.58 (mean 3.40; controls 3 of 9).
HFTPNSYGIS / VIYSDGRCTFYGDSVK / GRAAGTFDS: ND, 5.32, 4.71 (mean 5.02; controls 1 of 9).
GFTLNSYGIS / VIYSDGRRTFYGDSVK / GRAAGFFDS: ND, 4.36, ND (controls 1 of 9).
GFTLNSYGIS / VIYSDGRRKFYGDDVK / GRAAGTFDS: 0.78, 0.95, 0.90 (mean 0.87; controls 0 of 9).
GFTLNPYGIS / VIYSNGRRTFYGDSVK / GRAAGTFDS: ND, ND, ND (controls 0 of 9).
GFTLNSYGIS / VIYSDGNRTFYGDSVK / GRYAMTFDS: ND, ND, ND (controls 3 of 9).
GFTLNSYGIS / VIYSDGRRTFYGFSVK / GRAAGAFDS: ND, ND, ND (controls 1 of 9).
GFTLNSYGIS / VIGSDGRRTFYGDSVK / GRFASTFDS: ND, ND, 5.09 (controls 3 of 9).
GFTLESYGIS / VIYSDGRRFFYGDSVK / GRAAGTFDS: 1.92, 1.62, 1.78 (mean 1.78; controls 2 of 9).
GFTLNSYGIS / VIYSDGRRIFYGDSAK / GRATGTFDS: 2.40, 2.19, 2.23 (mean 2.27; controls 2 of 9).
GFTLNSYGIS / VIYCDGRRTFYGDSVK / KRAAGTFDS: ND, 4.89, ND (controls 1 of 9).
GFGLNSYGNS / VIYSDGRSTFYGDSVK / GRAAGTFDS: 4.46, ND, 5.01 (mean 4.74; controls 0 of 9).
GFTLNSYGIS / VIPSDTRRTFYGDSVK / GRAAGTDDS: 5.59, ND, ND (controls 2 of 9).
GFTLNSWGIG / VIYSDGRRTFYGDQVK / GRAAGTFDS: ND, 3.37, ND (controls 1 of 9).
GFTLNSYGLS / VIYSDGRRTFYSDSVK / GIAAGTFDS: 1.02, 1.10, 1.73 (mean 1.29; controls 0 of 9).
GFTLNSYGIS / VIYSDARRTFYGDWVK / GRAAGQFDS: 2.39, ND, 4.06 (mean 3.23; controls 0 of 9).
GFTLNSYGIS / VIYSDIRRTFYGDSVK / GRAAGPFIS: ND, ND, ND (controls 1 of 9).
GFTLNSYGIS / VIYSDGRFTFKGDSVK / GRGAGTFDS: ND, 2.93, ND (controls 1 of 9).
GFELNSYGIS / VIYSRGRRTFYGDAVK / GRAAGTFDS: ND, ND, ND (controls 1 of 9).

Picked from the list: the 7 lowest averages where every replicate gave a value.

| CDR-H1 | CDR-H2 | CDR-H3 | log10 Kd (nM) by replicate | log10 Kd (nM), mean | empty controls |
|---|---|---|---|---|---|
| GFTLNSYGIS | VIYSDGRRKFYGDDVK | GRAAGTFDS | 0.78, 0.95, 0.90 | 0.87 | 0 of 9 |
| GFTLNSYGLS | VIYSDGRRTFYSDSVK | GIAAGTFDS | 1.02, 1.10, 1.73 | 1.29 | 0 of 9 |
| GFTLESYGIS | VIYSDGRRFFYGDSVK | GRAAGTFDS | 1.92, 1.62, 1.78 | 1.78 | 2 of 9 |
| GFTLNSYGIS | VIYSDGRRIFYGDSAK | GRATGTFDS | 2.40, 2.19, 2.23 | 2.27 | 2 of 9 |
| GFTLNSYGMS | VIYSDGRRTFYGDSVK | GPAAGTFDS | 2.45, 2.83, 2.51 | 2.60 | 0 of 9 |
| GFTLNSYGIS | VIYSDGRRTFYGDSVK | GRAAGHAGS | 2.88, 2.55, 2.65 | 2.69 | 3 of 9 |
| GFTLNSYGIS | VIYGDGRRTWYGESVK | GRAAGTFDS | 3.56, 3.06, 3.58 | 3.40 | 3 of 9 |

Parent in this assay: reference entry 0.65, copy in this library 4.11 (one replicate of three).

Values reported by Engelhart et al. 2022, doi:10.1038/s41597-022-01779-4 (FLAb copy).